One substance from patent US20140170125A1, “USE OF CARDIOTROPHIN-1 FOR THE TREATMENT OF KIDNEY DISEASES” (DIGNA Biotech, S.L., priority 2011, published 2014) can be followed below.

In data set [1] the test system is acute kidney injury produced by gentamicin. The experiment in a line: Acute kidney injury produced by gentamicin.
Data set [2] deals with experimental model of iodinated contrast nephropathy. The experiment in a line: Contrast-induced nephropathy: Gastrografin in rats sensitized with subtoxic gentamicin. The settings on record: agents without CT-1 protection or alone; vs control. Here is the method: The rats were placed in individual metabolic cages where they had free access to food and drink. After two days of acclimatization, the 24-hour urine was collected in graduated cylinders. The urine collected was centrifuged during 8 minutes at 2,500 rpm, to clean it from residues not thereof, the clean urine was collected and it was stored at −80° C. for its later analysis.
The blood samples were obtained in capillaries with heparin by a small cut at the end of the tail. Five capillaries were extracted per rat (200 μL), and the capillaries were centrifuged in a microcentrifuge at 11,000 rpm during three minutes. Once centrifuged, the capillaries were broken with the aid of a file, by the cells-plasma limit. The plasma was extracted and stored in eppendorf tubes at −80° C. for its later analysis.
To measure kidney function, the plasma concentrations of creatinine and creatinine clearance, which is a measurement of the glomerular filtration rate, were determined. The creatinine clearance (CrCl) was calculated from the formula CrCl=UF×CrU/CrP, where UF is the urinary flow (ml/min), CrU the creatinine concentration in urine (mg/ml) and CrP the creatinine concentration in plasma (mg/ml). The creatinine concentration in urine and in plasma were measured by a semiautomatic analyser (Reflotron, Roche).
The concentration of urea in plasma was measured by specific reactive strips of a commercial kit, using a semiautomatic analyser (Reflotron, Roche).
The concentration of proteins in urine (proteinuria) was measured by Bradford's colorimetric method (Anal Biochem. 1976; 72:248-54). The urinary excretion of proteins (UEprot) in 24 hours was calculated by the formula: UEprot=Cprot×FU24 h, where Cprot is the concentration of proteins in urine (mg/mL) and FU24 h the urinary flow of 24 hours (mL/day).
For its determination a commercial kit from Roche was used, following the manufacturer's specifications, and the results were analysed with the KC-Junior software. […]

As to gentamicin [reference compound], the “urinary excretion of N-acetyl glucosaminidase (NAG)” value in data set [1] (G alone) is given as “highly increased”. In data set [1] (agent alone), the creatinine clearance entry is “drastic decrease”, the plasma creatinine entry is given as “accumulation in the blood” and the urea plasma concentration entry is “accumulation in the blood”. For the same substance, the “systolic blood pressure (SBP)” value in data set [1] (basal vs end of treatments (d 6)) is reported as “slightly increased”. Also, in data set [2], the creatinine clearance entry is recorded as “did not alter”, the “plasma concentration of creatinine” value is given as “did not alter” and the urea plasma concentration entry was “did not alter”.
